From patent US20240245770A1, “COMPOSITIONS AND METHODS FOR TREATING NEUROMUSCULAR DISORDERS” (The Regents of the University of California, priority 2019, published 2024)

System: Sorted CD8+ T cells
Experiment: CD8+ T cell Luminex
Type: cell-based, human
Experimental: (§1) Increased overall cytokine/chemokine/growth factor/ligands in CD8+ T cells of patient untreated or activated with IL-2 or anti-CD3/28 or IL-2+sAJ2 when compared to healthy twin (Tables 59-62). CD8+ T cell Luminex. Sorted CD8+ T cells were left untreated, treated with IL-2 (1000 U/mL) or treated with the combination of IL-2+anti-CD3/28 antibodies (25 μl/mL) or IL-2+sAJ2 (Cells:sAJ2 1:20). After an overnight treatment at 37° C., the supernatants were harvested and the levels of cytokine/chemokine/growth factor/ligands secretion were measured using multiplex luminex assay (Millipore, MA) (Tables 59-62).
as §1, with “81-84).” for “59-62).”, “assay.” for “assay (Millipore, MA) (Tables 59-62).”
as §1, with “patients” for “patient”, “90-94).” for “59-62).”, “assay.” for “assay (Millipore, MA) (Tables 59-62).”
CD8+ T cell Luminex. Sorted CD8+ T cells were treated with the combination of IL-2+anti-CD3/28 antibodies (25 μl/mL). After an overnight treatment at 37° C., the supernatants were harvested and the levels of cytokine/chemokine/growth factor/ligands secretion were measured using multiplex luminex assay (Table 157).

[1] = CD8+ T cells of H105 RS (ALS patient)
[2] = CD8+ T cells of H105 RS (ALS patient), Table 94
[3] = H85 TC CD8, overnight treatment, supernatant

Substance: Recombinant human IL-2
- MIP1b [1]: 744 pg/mL
- PDGF-AB/BB [1]: 197 pg/mL
- PDGFaa [1]: 152 pg/mL
- Rantes [1]: 7801 pg/mL
- TGFa [1]: 5 pg/mL
- TNFa [1]: 80 pg/mL
- TNFb [1]: 17 pg/mL
- VEGF [1]: 1166 pg/mL
- sCD40L [1]: 92 pg/mL
- PDGF-AB/BB [2]: 197 pg/mL
- PDGFaa [2]: 152 pg/mL
- sCD40L [2]: 92 pg/mL
- IL-7 (CD8 of H84 JC (patient)): 3.96 pg/mL
- IL-8 (CD8 of H84 JC (patient)): 547.29 pg/mL
- IL-9 (CD8 of H84 JC (patient)): 7.82 pg/mL
- IL-10 (CD8 of H84 JC (patient)): 6.26 pg/mL
- IL-12p40 (CD8 of H84 JC (patient)): 3.47 pg/mL
- IL-12p70 (CD8 of H84 JC (patient)): 2.61 pg/mL
- IL-13 (CD8 of H84 JC (patient)): 4.1 pg/mL
- IL-15 (CD8 of H84 JC (patient)): 2.12 pg/mL
- IL-17a (CD8 of H84 JC (patient)): 2.19 pg/mL
- IP-10 (CD8 of H84 JC (patient)): 15.53 pg/mL
- L-2 (CD8 of H84 JC (patient)): 5804 pg/mL
- MCP1 (CD8 of H84 JC (patient)): 562.72 pg/mL
- MCP3 (CD8 of H84 JC (patient)): 4.6 pg/mL
- MDC (CD8 of H84 JC (patient)): 223.2 pg/mL
- MIP1a (CD8 of H84 JC (patient)): 79 pg/mL
- MIP1b (CD8 of H84 JC (patient)): 144.7 pg/mL
- PDGF-AB/B (CD8 of H84 JC (patient)): 11.69 pg/mL
- PDGFaa (CD8 of H84 JC (patient)): 50.2 pg/mL
- Rantes (CD8 of H84 JC (patient)): 377.89 pg/mL
- TGFa (CD8 of H84 JC (patient)): 1.14 pg/mL
- TNFa (CD8 of H84 JC (patient)): 8.45 pg/mL
- TNFb (CD8 of H84 JC (patient)): 3.96 pg/mL
- VEGF (CD8 of H84 JC (patient)): 109.58 pg/mL
- sCD40L (CD8 of H84 JC (patient)): 7.43 pg/mL
- EGF (CD8 of H85 TC (healthy twin)): 12.37 pg/mL
- Eotaxin (CD8 of H85 TC (healthy twin)): 4.79 pg/mL
- FGF2 (CD8 of H85 TC (healthy twin)): 4.1 pg/mL
- FIT3L (CD8 of H85 TC (healthy twin)): 3.82 pg/mL
- Fractalkine (CD8 of H85 TC (healthy twin)): 31.3 pg/mL
- GCSF (CD8 of H85 TC (healthy twin)): 6.9 pg/mL
- GMCSF (CD8 of H85 TC (healthy twin)): 5.22 pg/mL
- GRO (CD8 of H85 TC (healthy twin)): 112.6 pg/mL
- IFNa2 (CD8 of H85 TC (healthy twin)): 7.62 pg/mL
- IFNg (CD8 of H85 TC (healthy twin)): 4.6 pg/mL
- IL-1Ra (CD8 of H85 TC (healthy twin)): 52.33 pg/mL
- IL-1a (CD8 of H85 TC (healthy twin)): 2.22 pg/mL
- IL-1b (CD8 of H85 TC (healthy twin)): 2.13 pg/mL
- IL-3 (CD8 of H85 TC (healthy twin)): 0.85 pg/mL
- IL-4 (CD8 of H85 TC (healthy twin)): 13.08 pg/mL
- IL-5 (CD8 of H85 TC (healthy twin)): 1.55 pg/mL
- IL-6 (CD8 of H85 TC (healthy twin)): 2.98 pg/mL
- IL-7 (CD8 of H85 TC (healthy twin)): 3.47 pg/mL
- IL-8 (CD8 of H85 TC (healthy twin)): 282.21 pg/mL
- IL-9 (CD8 of H85 TC (healthy twin)): 8.03 pg/mL
- IL-10 (CD8 of H85 TC (healthy twin)): 4.26 pg/mL
- IL-12p40 (CD8 of H85 TC (healthy twin)): 3.82 pg/mL
- IL-12p70 (CD8 of H85 TC (healthy twin)): 2.38 pg/mL
- IL-13 (CD8 of H85 TC (healthy twin)): 5.22 pg/mL
- IL-15 (CD8 of H85 TC (healthy twin)): 1.62 pg/mL
- IL-17a (CD8 of H85 TC (healthy twin)): 2.19 pg/mL
- IP-10 (CD8 of H85 TC (healthy twin)): 2.53 pg/mL
- L-2 (CD8 of H85 TC (healthy twin)): 4954 pg/mL
- MCP1 (CD8 of H85 TC (healthy twin)): 308.14 pg/mL
- MCP3 (CD8 of H85 TC (healthy twin)): 3.89 pg/mL
- MDC (CD8 of H85 TC (healthy twin)): 98.41 pg/mL
- MIP1a (CD8 of H85 TC (healthy twin)): 61.65 pg/mL
- MIP1b (CD8 of H85 TC (healthy twin)): 93.34 pg/mL
- PDGF-AB/B (CD8 of H85 TC (healthy twin)): 19.59 pg/mL
- PDGFaa (CD8 of H85 TC (healthy twin)): 42.99 pg/mL
- Rantes (CD8 of H85 TC (healthy twin)): 554.96 pg/mL
- TGFa (CD8 of H85 TC (healthy twin)): 0.94 pg/mL
- TNFa (CD8 of H85 TC (healthy twin)): 8.03 pg/mL
- TNFb (CD8 of H85 TC (healthy twin)): 2.57 pg/mL
- VEGF (CD8 of H85 TC (healthy twin)): 98.41 pg/mL
- sCD40L (CD8 of H85 TC (healthy twin)): 3.2 pg/mL
- EGF [3]: 12.37 pg/mL
- Eotaxi [3]: 4.79 pg/mL
- FGF2 [3]: 4.1 pg/mL
- FIT3L [3]: 3.82 pg/mL
- Fractalkin [3]: 31.3 pg/mL
- GCSF [3]: 6.9 pg/mL
- GMCSF [3]: 5.22 pg/mL
- GRO [3]: 112.6 pg/mL
- IFNa2 [3]: 7.62 pg/mL
- IFNg [3]: 4.6 pg/mL
- IL-1Ra [3]: 52.33 pg/mL
- IL-1a [3]: 2.22 pg/mL
- IL-1b [3]: 2.13 pg/mL
- IL-3 [3]: 0.85 pg/mL
- IL-4 [3]: 13.08 pg/mL
- IL-5 [3]: 1.55 pg/mL
- IL-9 [3]: 8.03 pg/mL
- IL-10 [3]: 4.26 pg/mL
- IL-12p40 [3]: 3.82 pg/mL
- IL-12p70 [3]: 2.38 pg/mL
- IL-13 [3]: 5.22 pg/mL
- IL-15 [3]: 1.62 pg/mL
- IL-17a [3]: 2.19 pg/mL
- L-2 [3]: 4954 pg/mL
- L-6 [3]: 2.98 pg/mL
- L-7 [3]: 3.47 pg/mL
- L-8 [3]: 282.21 pg/mL
- MCP1 [3]: 308.14 pg/mL
- MCP3 [3]: 3.89 pg/mL
- MDC [3]: 98.41 pg/mL
- MIP1a [3]: 61.65 pg/mL
- MIP1b [3]: 93.34 pg/mL
- P-10 [3]: 2.53 pg/mL
- PDGF-AB/BB [3]: 19.59 pg/mL
- PDGFaa [3]: 42.99 pg/mL
- Rantes [3]: 554.96 pg/mL
- TGFa [3]: 0.94 pg/mL
- TNFa [3]: 8.03 pg/mL
- TNFb [3]: 2.57 pg/mL
- VEGF [3]: 98.41 pg/mL
- sCD40L [3]: 3.2 pg/mL
